The values that follow come from ChEMBL document CHEMBL4330159, “Isoquinoline Alkaloids from Berberis vulgaris as Potential Lead Compounds for the Treatment of Alzheimer's Disease” (J Nat Prod, 2019).

The chains behind the UniProt entries cited, without tags or fusion partners. Where a name states a change or a piece, a line headed by the entry shows the natural chain unless it says otherwise.
UniProt P22303: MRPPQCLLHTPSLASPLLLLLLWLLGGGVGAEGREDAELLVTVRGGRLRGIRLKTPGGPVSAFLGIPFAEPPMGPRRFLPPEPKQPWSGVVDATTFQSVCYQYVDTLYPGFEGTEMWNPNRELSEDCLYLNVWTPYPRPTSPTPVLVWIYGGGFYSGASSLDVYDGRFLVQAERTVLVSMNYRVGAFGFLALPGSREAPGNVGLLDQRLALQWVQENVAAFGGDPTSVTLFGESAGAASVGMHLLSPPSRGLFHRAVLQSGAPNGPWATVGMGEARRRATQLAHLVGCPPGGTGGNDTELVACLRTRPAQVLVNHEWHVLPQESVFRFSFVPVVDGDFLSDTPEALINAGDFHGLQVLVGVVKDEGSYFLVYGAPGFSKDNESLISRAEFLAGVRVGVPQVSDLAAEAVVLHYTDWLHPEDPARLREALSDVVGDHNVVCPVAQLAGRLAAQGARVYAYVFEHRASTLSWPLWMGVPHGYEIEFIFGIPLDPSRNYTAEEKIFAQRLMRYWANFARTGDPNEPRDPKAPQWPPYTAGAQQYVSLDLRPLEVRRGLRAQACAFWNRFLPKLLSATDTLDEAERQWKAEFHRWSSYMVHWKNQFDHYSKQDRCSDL

The target of this experiment is Acetylcholinesterase (Homo sapiens, UniProt P22303).

For `COc1ccc2cc3[n+](cc2c1OC)CCc1cc2c(cc1-3)OCO2` [BERBERINE], the IC50 (commonly the concentration that inhibits the measured activity by half) was 700 nM.
